This note sets out measurements from patent US7323490B2 (dated 2008).

For this assay, the target named is T1, NQO2 (Rattus norvegicus, UniProt Q6AY80).
T1 sequence (Q6AY80 1-231): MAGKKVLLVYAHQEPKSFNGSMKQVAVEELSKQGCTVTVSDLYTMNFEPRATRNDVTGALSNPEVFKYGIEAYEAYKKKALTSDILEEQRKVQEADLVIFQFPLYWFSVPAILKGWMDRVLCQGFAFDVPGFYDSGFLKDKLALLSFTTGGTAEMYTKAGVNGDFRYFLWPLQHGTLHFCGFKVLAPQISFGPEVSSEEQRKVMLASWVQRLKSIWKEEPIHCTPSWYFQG
The assay is classed as binding. Conditions: 10 μM competitor.

As for `CC(C)c1nc(N(C)S(C)(=O)=O)nc(-c2ccc(F)cc2)c1/C=C/[C@@H](O)C[C@@H](O)CC(=O)O` [rosuvastatin], the “competitor binding to NQO2” value is recorded as “did not display evidence of binding”.
